# Literature values, collected in PubChem BioAssay AID1811 (Shanghai Institute of Organic Chemistry, 2009).
# The other results are listed elsewhere or left out. Calls of active or inactive are those of the source. Where no limit is named, active and inactive come without a cut-off here.
# System: 3-phosphoinositide dependent protein kinase 1
# Assay: PubChem AID 1811
# Conditions: PDB complex binding affinities from literature
row,SMILES,outcome
1,CN(C)CCCn1cc(C2=C(c3c[nH]c4ccccc34)C(=O)NC2=O)c2ccccc21,active
2,Cn1cc(C2=C(c3cn(CCCN)c4ccccc34)C(=O)NC2=O)c2ccccc21,active
